The text below walks through data of article PMC10306110 (Cell, 2023).

Data set [1] concerns learned helpless C57BL/6J mice. In words: Sensitivity to foot-shock. The class given is in vivo, mouse. The note with it: days 13 and 22.
Data set [2] deals with learned helpless C57BL/6J mice. In words: Open field motor activity. The class given is in vivo, mouse. The note with it: day 12; 2 or 5 mg/kg ‘8090, 5 mg/kg ‘8219; 40 mg/kg Ibo, 10 mg/kg Flx.

Consider ibogaine, for which the reactivity to foot-shock entry in data set [1] is reported as “do not affect reactivity to foot-shock”. Further, in data set [2], the “locomotion in the open field” value is on record as “No locomotor differences were found”.
